This is an account of results in publication PMC9637222, “Autoinducer-2 and bile salts induce c-di-GMP synthesis to repress the T3SS via a T3SS chaperone” (Nature Communications, 2022).

Assay [1] concerns the target T1, WP_034494714-LBD (Q208Y/E237D) (Buttiauxella agrestis, UniProt A0A085GF42, E237D/Q208Y).
T1 sequence (A0A085GF42 27-302 Q208Y/E237D): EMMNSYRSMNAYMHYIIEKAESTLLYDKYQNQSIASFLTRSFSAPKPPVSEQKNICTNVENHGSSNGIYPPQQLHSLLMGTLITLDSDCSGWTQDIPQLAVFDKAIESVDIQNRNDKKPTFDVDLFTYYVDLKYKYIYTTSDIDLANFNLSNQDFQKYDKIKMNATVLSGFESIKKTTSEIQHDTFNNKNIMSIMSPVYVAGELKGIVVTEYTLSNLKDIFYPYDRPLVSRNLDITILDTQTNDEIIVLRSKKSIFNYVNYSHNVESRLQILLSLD
In words: ITC: DPD/AI-2 binding to WP_034494714-LBD double mutant. As to conditions: individual replicates, Supplementary Figure 7e.

Assay [2] relates to T2, InvF/SicA complex with promoters of sopB, sopE2, and the sicAsipBCDA operon.
T2 construct: His6 (N, cleaved yes); made in house; host or cells: E. coli BL21(DE3) (pET28a-sicA, pET28a-invF)
The assay is described as follows: EMSA: InvF/SicA binding to target promoters in presence of nucleotides. Further details: species or system S. Typhimurium. As to conditions: c-di-AMP or cGMP at dose of the highest level of c-di-GMP. For orientation: In EMSA bound probe runs differently from free probe, usually more slowly.

In assay [3] the test system is promoters of sopB, sopE2, and the sicAsipBCDA operon. The assay is described as follows: Promoter-lacZ fusion β-galactosidase assay. The following applies: 1 μM; for β-Galactosidase (Miller units): strain WT, Fig. 4k; for Promoter activities of sopB, sopE2, and sicAsipBCDA (in words): wild-type strain.

Structures are written as SMILES. pKd: −log10 of the molar value. Values joined by “and” are separate entries in the source; they are usually repeats but may differ in a detail not shown here. Equal entries are not always repeated.

Turning to `CC(=O)C(=O)[C@@H](O)CO` [DPD/AI-2, autoinducer-2], the “n, DPD/AI-2 binding to WP_034494714-LBDQ208Y/E237D” value in assay [1] (ITC binding stoichiometry n) was 1.13 and 1.19 and 1.14. Also, the pKd in assay [1] (read-out: Kd, DPD/AI-2 binding to WP_034494714-LBDQ208Y/E237D, ITC) is 6.60.
Consider `Nc1ncnc2c1ncn2[C@@H]1O[C@@H]2COP(=O)(O)O[C@H]3[C@@H](O)[C@H](n4cnc5c(N)ncnc54)O[C@@H]3COP(=O)(O)O[C@H]2[C@H]1O` [c-di-AMP], for which, in assay [2], the “Effect on formation of InvF/SicA-DNA complexes (in words)” value was “did not result in an observable difference”.
Same read-out and setting: the value for `Nc1nc2c(ncn2C2OC3COP(=O)(O)OC4C(COP(=O)(O)OC3C2O)OC(n2cnc3c(=O)[nH]c(N)nc32)C4O)c(=O)[nH]1` (stereo not shown) [c-di-GMP, Cyclic di-GMP] was “reduced or even abrogated”; that for `Nc1nc2c(ncn2[C@@H]2O[C@@H]3COP(=O)(O)O[C@H]3[C@H]2O)c(=O)[nH]1` [cGMP] was “did not result in an observable difference”.
As for `C[C@H](CCC(=O)NCCS(=O)(=O)O)[C@H]1CC[C@H]2[C@@H]3[C@H](O)C[C@@H]4C[C@H](O)CC[C@]4(C)[C@H]3C[C@H](O)[C@]12C` [taurocholate], the “β-Galactosidase (Miller units)” value in assay [3] (PsicAsipBCDA) is 422.71 Miller units and 461.77 Miller units and 405.55 Miller units; in assay [3] (PsopB), 196.10 Miller units and 210.53 Miller units and 189.80 Miller units; in assay [3] (PsopE2), 286.89 Miller units and 298.06 Miller units and 241.62 Miller units. In addition, the “Promoter activities of sopB, sopE2, and sicAsipBCDA (in words)” value in assay [3] was “strongly repressed”.
Turning to `C[C@H](CCC(=O)NCCS(=O)(=O)O)[C@H]1CC[C@H]2[C@@H]3CC[C@@H]4C[C@H](O)CC[C@]4(C)[C@H]3C[C@H](O)[C@]12C` [taurodeoxycholate], the “β-Galactosidase (Miller units)” value was 336.34 Miller units and 368.76 Miller units and 353.92 Miller units in assay [3] (PsicAsipBCDA); 144.02 Miller units and 170.31 Miller units and 127.03 Miller units in assay [3] (PsopB); 179.70 Miller units and 209.40 Miller units and 177.92 Miller units in assay [3] (PsopE2). Besides, in assay [3], the “Promoter activities of sopB, sopE2, and sicAsipBCDA (in words)” value was “strongly repressed”.
